Test results as given in ChEMBL document CHEMBL3425404, “Structure-activity relationship in a purine-scaffold compound series with selectivity for the endoplasmic reticulum Hsp90 paralog Grp94” (J Med Chem, 2015).

Chains of the proteins cited; added tags and fusions are not shown.
UniProt P41148, whole entry: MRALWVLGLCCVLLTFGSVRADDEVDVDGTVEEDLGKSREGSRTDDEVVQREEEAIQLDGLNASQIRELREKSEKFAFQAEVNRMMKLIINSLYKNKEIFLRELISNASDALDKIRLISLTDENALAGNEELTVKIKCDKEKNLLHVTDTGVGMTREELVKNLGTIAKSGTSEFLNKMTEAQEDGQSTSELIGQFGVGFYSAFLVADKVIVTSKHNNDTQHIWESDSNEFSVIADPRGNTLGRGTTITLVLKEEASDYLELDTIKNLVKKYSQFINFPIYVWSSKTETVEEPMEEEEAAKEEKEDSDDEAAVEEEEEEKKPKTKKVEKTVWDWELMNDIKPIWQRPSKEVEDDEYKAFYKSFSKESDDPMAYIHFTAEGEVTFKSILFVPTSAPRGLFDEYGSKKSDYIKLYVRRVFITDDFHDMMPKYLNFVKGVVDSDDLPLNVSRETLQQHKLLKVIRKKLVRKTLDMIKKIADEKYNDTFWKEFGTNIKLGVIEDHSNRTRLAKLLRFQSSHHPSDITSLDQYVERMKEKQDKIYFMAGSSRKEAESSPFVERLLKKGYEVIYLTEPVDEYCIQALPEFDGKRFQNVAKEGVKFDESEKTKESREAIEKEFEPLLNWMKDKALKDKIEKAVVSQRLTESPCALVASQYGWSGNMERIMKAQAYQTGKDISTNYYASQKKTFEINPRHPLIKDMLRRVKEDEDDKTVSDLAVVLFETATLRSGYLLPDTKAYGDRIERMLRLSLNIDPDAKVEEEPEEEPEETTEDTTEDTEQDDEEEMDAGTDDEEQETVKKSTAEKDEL

Target: Endoplasmin (Canis lupus familiaris, UniProt P41148)
Test: Displacement of Cy3B-GM from recombinant Grp94 (unknown origin) after 24 hrs by fluorescence polarization assay

IC50: 1140 nM
Compound: C#CCCCn1c(Sc2cc(C)ccc2C)nc2c(N)ncnc21
